# According to ChEMBL document CHEMBL1145728, “Structure--activity relationships of the peptide deformylase inhibitor BB-3497: modification of the P2' and P3' side chains” (Bioorg Med Chem Lett, 2003):
# Biological target: T1, Peptide deformylase (Escherichia coli, UniProt Q9JN24)
# T1 sequence (Q9JN24 whole entry): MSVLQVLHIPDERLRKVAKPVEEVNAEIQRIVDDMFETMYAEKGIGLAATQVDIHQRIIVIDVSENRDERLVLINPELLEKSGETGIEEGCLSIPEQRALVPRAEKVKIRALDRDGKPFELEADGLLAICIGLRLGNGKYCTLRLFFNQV
# Experiment: Inhibition concentration against Escherichia coli peptide deformylase.
row,SMILES,IC50
1,CCCC[C@H](CN(O)C=O)C(=O)N[C@H](C(=O)N1CCCC2CCCCC21)C(C)(C)C (some centres not stated),40 nM
2,CCCC[C@H](CN(O)C=O)C(=O)N[C@@H](Cc1ccccc1)C(=O)N(C)C,10 nM
